The results in this text go back to article PMC10692228, “A simple method for developing lysine targeted covalent protein reagents” (Nature Communications, 2023).

One data set deals with 14-3-3 isoforms. Put plainly: Binding to 14-3-3 isoforms using LC-MS qTOF. Conditions: 1:5 protein:peptide, overnight, intact protein LC/MS. On the procedure:
The complexes were buffer-exchanged into milliQ + 0.1% formic acid after overnight incubation at 4 °C.
UPLC-QToF-MS analysis was performed on a Waters (Milford, MA, USA) Acquity I-Class UPLC system coupled to a Waters Xevo G2 quadrupole time-of-flight (QToF) mass spectrometer. The devices were controlled by MassLynx Software (version 4.1, Waters, MA, USA). Full scan in positive electrospray ionization (ESI+) mode was used as MS acquisition mode with an acquisition range from 200–2000 m/z. […] The samples concentration were 0.01–0.1 mg/mL, and the injection volume was 1 µL. Deconvolution was performed by the MaxEnt1 option of the MassLynx software. Errors were calculated using the MaxEnt Errors option.
Supplementary Figure 6: Isoform selectivity of 14-3-3 covalent binding peptides
Binding of electrophilic peptides to 14-3-3 isoforms. Peptides were incubated with the various indicated
isoforms overnight at room temperature, diluted and analyzed using intact protein LC/MS.

The subject of the next data set is 14-3-3σ. Put plainly: LC/MS/MS (parallel reaction monitoring) characterization of labeling sites in 14-3-3σ. It is filed as binding, human. How it is done: This was followed by addition of iodoacetamide to 10 mM and incubation of 40 min at room temperature in the dark. The samples were then processed using S-trap (Protify) according to the manufacturer's instructions, followed by desalting using Oasis plate (Waters). […] The mobile phase was: […] Ionization was achieved using a 1900 V spray voltage with an ion transfer tube temperature of 275 °C. Initially, data were acquired in data-dependent acquisition (DDA) mode. MS1 resolution was set to 120,000 (at 200 m/z), a mass range of 375-1650 m/z, normalized AGC of 300%, and the maximum injection time was set to 20 ms. […] The DDA data was analyzed using MaxQuant 1.6.3.4[110]. The database contained the sequence of the 14-3-3σ construct used in the study, and contaminants were included. Methionine oxidation and N terminal acetylation were variable modifications, and carbamidomethyl was a fixed modification in the analysis, with up to 4 modifications per peptide. Digestion was defined as trypsin/P with up to 2 missed cleavages. PSM FDR was defined as 1 and Protein FDR/Site Decoy fraction were defined as 0.01. Second Peptides were enabled and Match between runs was enabled with a Match time window of 0.7 min. The data was imported into skyline (version 22.2.0.351) and precursors from 9 peptides containing or following the residues […], […] and […] were selected for parallel reaction monitoring (PRM). In every acquisition cycle, one full MS spectrum was taken at a range of 350-1000 Da, 300% AGC target, maximum injection time 20 ms at a resolution of 120,000. Data for each precursor was measured during a 4-5 min window around the retention time measured in the DDA run, with Q1 resolution of 2 Da, orbitrap resolution of 15,000, 300% AGC target and maximum injection time of 160 ms. The acquired data was then analyzed in skyline using a spectral library generated from the DDA runs. The 3 most intense product ions were used for quantitation relative to the DMSO control. data have been deposited to the ProteomeXchange Consortium via the PRIDE[111] partner repository with the dataset identifier PXD044257 and 10.6019/PXD044257. […] Supplementary Figure 4. Methacrylate peptides label different 14-3-3σ residues. a) Following incubation with the peptides, samples of 14-3-3σ were trypsinized and tryptic peptides containing or following potential target residues were quantified using parallel reaction monitoring. 95% confidence intervals for the integrated signal for the peptides were calculated from n = 3 runs. The ratio to DMSO was calculated and the confidence interval for the ratio was calculated by standard error […] temperature and the products were characterized using LC/MS. c) 14-3-3σ was incubated with peptide 8 until fully labeled, followed by incubation with TCEP or DTT for 130 minutes at room temperature and analysis by LC/MS. d) 14-3-3σ was incubated with BODIPY-modified peptides until fully labeled. The samples were then denatured using Lithium Dodecyl Sulfate buffer in different conditions (with or without heating and with or without DTT) and analyzed by SDS-PAGE.

The next data set deals with A549 lysates. Put plainly: Pull-down proteomics with biotinylated peptides in A549 lysates. It is filed as binding, human. Conditions: biotinylated derivatives of the peptides, 1 µM, 22 h, 25 °C, streptavidin enrichment, LC-MS/MS. On the procedure: We synthesized and purified N terminally biotinylated derivatives of peptides 3 and 8. A549 cells were harvested and lysed as described before. The lysates were diluted to 1.9 mg/ml in lysis buffer, and the peptides were diluted to 20 µM in 20% DMSO/lysis buffer. 142.5 µl of lysate were mixed with 7.5 µl of 20 µM peptide stock and the samples were incubated at 25 °C for 22 h. The proteins were precipitated by addition of 450 µl water, 600 µl HPLC grade methanol and 150 µl HPLC grade chloroform, followed by vortexing and centrifugation for 10 min at 21,000 × g at 4 °C. The top layer was aspirated, and 600 µl methanol was added and the sample was vortexed and centrifuged again, followed by aspiration of the supernatant. The pellet was air-dried and kept at −80 °C. The pellet was dissolved in 200 µl of 2.5% SDS in PBS with heating to 60 °C and shaking at 1150 rpm for 30 min. […]
The beads were centrifuged and the supernatant was mixed 1:1 with 0.2% TFA in water. […] Samples were analyzed using EASY-nLC 1200 nano-flow UPLC system, using PepMap RSLC C18 column (2 μm particle size, 100 Å pore size, 75 μm diameter × 50 cm length), mounted using an EASY-Spray source onto an Exploris 240 mass spectrometer. uLC/MS-grade solvents were used for all chromatographic steps at 300 nL/min. […] Four samples were analyzed per condition. […]

Data set [1] in a line: Differential scanning fluorimetry of Im proteins and Im-E9 complexes. Conditions: DSF, SYPRO Orange, 40 µM protein; for Tm average: average of 3 technical replicates. (Differential scanning fluorimetry follows unfolding on heating by fluorescence.)

For “Ac-RAH-(pT)-(mC)-PASLQ-NH2 [Peptide 8, Methacrylate phosphopeptide derived from YAP-1 (PDB 3MHR)]”, the “labeling of 14-3-3 isoforms” value in the data set with 14-3-3 isoforms was “labeled all isoforms with similar efficiencies”. In the data set on 14-3-3σ (5 µM peptide, 2 µM 14-3-3σ, 48 h room temperature, trypsin digestion, LC/MS/MS relative to DMSO control), the “binding site on 14-3-3σ” value is recorded as “Lys122 as the likely binding site”. Besides, in the data set with 14-3-3σ (LC/MS/MS PRM, abundance of unmodified tryptic peptide GAVEKGEELSCEER, Pep8-treated vs DMSO, adjusted P-value 0.0029, CI 1.19-1.88), the “Fold Change Result, 14-3-3σ tryptic peptide GAVEKGEELSCEER” value was found to be 1.5. In addition, the “Fold Change Result, 14-3-3σ tryptic peptide GDYYRYLAEVATGDDK” value in the data set with 14-3-3σ (LC/MS/MS PRM, tryptic peptide GDYYRYLAEVATGDDK, Pep8-treated vs DMSO, adjusted P-value 0, CI 0.08-0.11) turned out to be 0.1. Besides, the “Fold Change Result, 14-3-3σ tryptic peptide GEELSCEER” value in the data set on 14-3-3σ (LC/MS/MS PRM, tryptic peptide GEELSCEER, Pep8-treated vs DMSO, adjusted P-value 0.8934, CI 0.72-1.42) is 1.01. For the same substance, the “Fold Change Result, 14-3-3σ tryptic peptide MKGDYYR” value with 14-3-3σ (LC/MS/MS PRM, tryptic peptide MKGDYYR, Pep8-treated vs DMSO, adjusted P-value 0.0163, CI 0.25-1.05) is reported as 0.51. Also, the “Fold Change Result, 14-3-3σ tryptic peptide MKGDYYRYLAEVATGDDK” value in the data set on 14-3-3σ (LC/MS/MS PRM, tryptic peptide MKGDYYRYLAEVATGDDK, Pep8-treated vs DMSO, adjusted P-value 0.0003, CI 0.07-0.22) worked out at 0.13. For the same substance, the “Fold Change Result, 14-3-3σ tryptic peptide NLLSVAYK” value in the data set with 14-3-3σ (LC/MS/MS PRM, tryptic peptide NLLSVAYK, Pep8-treated vs DMSO, adjusted P-value 0.0652, CI 0.93-1.32) came out at 1.11. In addition, in the data set with 14-3-3σ (LC/MS/MS PRM, tryptic peptide NLLSVAYKNVVGGQR, Pep8-treated vs DMSO, adjusted P-value 0.0062, CI 1.03-1.29), the “Fold Change Result, 14-3-3σ tryptic peptide NLLSVAYKNVVGGQR” value was 1.15. Moreover, the “Fold Change Result, 14-3-3σ tryptic peptide VFYLKMK” value in the data set with 14-3-3σ (LC/MS/MS PRM, tryptic peptide VFYLKMK, Pep8-treated vs DMSO, adjusted P-value 0.003, CI 0.17-0.65) was determined as 0.33. Moreover, in the data set on 14-3-3σ (LC/MS/MS PRM, tryptic peptide VFYLKMKGDYYR, Pep8-treated vs DMSO, adjusted P-value 0.0029, CI 0.53-0.84), the “Fold Change Result, 14-3-3σ tryptic peptide VFYLKMKGDYYR” value is recorded as 0.67. Further, in the data set on A549 lysates, the “selectivity in pull-down proteomics” value is given as “selective, pan-14-3-3 reactive probes”.

Consider “Ac-RAH-(pT)-SPASL-X-NH2 [Peptide 12, reference compound]”, for which the “labeling of 14-3-3 isoforms” value with 14-3-3 isoforms is “labeled only the sigma isoform”.

For “Im9: Colicin E9 immunity protein (Im9) in its free, unmodified form”, the Tm average in data set [1] amounted to 50.3484 celsius. The Tm in data set [1] (technical replicate 1) is reported as 50.4442 celsius; in data set [1] (technical replicate 2), 50.4446 celsius; in data set [1] (technical replicate 3), 50.1565 celsius.

For the substance “Im+E9: Non-covalent complex of Im9 and E9”, the Tm average in data set [1] was found to be 48.5398 celsius. For the same substance, the results for the Tm in data set [1] (technical replicate 1), in data set [1] (technical replicate 2) and in data set [1] (technical replicate 3) were 48.3238 celsius, 48.647 celsius and 48.6486 celsius, respectively.
